Compound activity deposited in PubChem by National Center for Advancing Translational Sciences (NCATS).
Only some compounds are listed: those with a hit (about 0.43% of all), similar ones and a draw of the others.
Rango dissoc inh: inhibition of RanGTP-driven Rango-importin beta dissociation; Potency, µM (doses to about 46.1 µM), without a hit: at the highest dose activity change, negative = inhibition; O95149+P62826; Biochemical FRET Rango-importin beta, RanGTP-induced dissociation; AID 540253; actives 0.071% (n = 340,000); calls by dose curve; note: % of control where 0% means no effect; nearly all actives have a fitted effect of over 45% in size
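Compounds sat 5 min at room temperature with 0.1 uM Rango biosensor plus 0.25 uM importin beta, then FRET pre-read. RanGTP-RCC1 (0.6 uM Ran, 2mM GTP, 0.2 uM RCC1) added for 45 min, and the CFP/YFP post-read measured blocked complex dissociation.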
EPAC2 agonist: activates human EPAC2 exchange factor | actives 0.079% (n = 360,000) | Potency, µM (highest dose often 154 µM), without a hit: at the top dose activation, actives largely listed as activators | EPAC2 activation, biochemical qHTS; response scale: 100% = 6.5 mM cAMP response | Q8WZA2 | AID 720711; note: nearly all actives have a fitted effect of over 50% in size
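Compounds were added across a concentration range to EPAC2 (100 nM), RAP1B-BODIPY-GDP (250 nM) and GDP (50 uM). After 5 min at room temperature, fluorescence was recorded at 5-min intervals for 30 min.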
EPAC1 antagonist: antagonists of human EPAC1 | Potency, µM (series often up to 115 µM), for inactives: top-dose activity change, negative = inhibition, actives largely listed as inhibitors | EPAC1 GEF assay, Rap1b-BODIPY-GDP exchange fluorescence | O95398 | actives 0.14% (n = 360,000) | AID 720709;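 note: plate controls were vehicle for no effect and positive control for full effect; nearly all actives have a fitted effect of over 50% in size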
EPAC1 agonist: EPAC1 (human) agonism; O95398; AID 720707; EPAC1 agonist qHTS, biochemical assay; response scale: 100% = response to 6.5 mM cAMP; Potency, µM (top dose mostly 154 µM), inactives show top-dose activation, usual class: activators; actives 0.073% (n = 360,000); note: nearly all actives have a fitted effect of over 60% in size
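EPAC1 100 nM, Rap1B–BODIPY-GDP 250 nM, unlabeled GDP 50 uM; compound titration; 5 min RT; kinetic read ex480/em540 at 5-min intervals ×30 min; data normalized to 6.5 mM cAMP agonist control.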
EPAC2 antagonist: blocks human EPAC2 exchange factor; EPAC2 GEF exchange of Rap1B-BODIPY-GDP, fluorescence; actives 0.18% (n = 360,000); AID 720708; Potency, µM (doses to about 114 µM), for inactives: at the highest dose activity, negative = inhibition, actives largely listed as inhibitors; Q8WZA2; note: % is set by controls: 0 for no effect and ±100 for the full control effect; nearly all actives have a fitted effect of over 45% in size
Rango complex inh: Rango-importin beta binding inhibition. Q14974. Rango CFP/YFP FRET sensor + importin beta, 45 min. Potency, µM (titrated, usually from 92.2 µM), for the others: at the top dose inhibition of complex formation. actives 0.031% (n = 340,000). AID 540263; calls by dose curve;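 note: 0% = DMSO wells and 100% = buffer wells lacking importin beta; nearly all actives have a fitted effect of over 15% in size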
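Inhibition scored from the CFP 486 nm/YFP 530 nm FRET ratio 45 min after adding 0.125 microM importin beta to 50 nM Rango biosensor preincubated 5 min with compound (room temperature, PBS with DTT, Tween-20, BSA). No-importin wells as positive control.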
Active calls of the source: *; ? = inconclusive; . = no result; [ ] = remark or other dose. Unless noted, calls come from the whole dose curve; as a rule, active = well fitted curve in the direction sought with a large enough effect; inconclusive = small, poorly fitted or top-dose-only effect, or another doubt; inactive = no such curve, though single readings can be large; an effect the other way counts as inactive or inconclusive. Potency is the fitted concentration of half-maximal effect.

(1) O=C1NC(=Nc2ccccc2Cl)S/C1=C\c1cc([N+](=O)[O-])ccc1O
(2) COc1cc(CCc2ccccc2)c(C(=O)O)c(O)c1C/C=C(/C)CCC=C(C)C
(3) COc1cc(CCc2ccccc2)c(C(=O)O)c(O)c1CC=C(C)C
(4) CCCc1nc2ccccc2n1C(C(=O)NC(C)(C)C)C1CC1 (stereo not given)
(5) CC(C)Nc1nc(Nc2ccccc2Cl)c2sccc2n1
(6) COc1ccc(CC(=O)NNc2ncnc3c2cnn3-c2ccc(C)cc2)cc1
(7) COc1ccc(CC(=O)NNc2ncnc3c2cnn3-c2ccccc2)cc1
(8) COc1cc(OC)c2c(O)c3c(c(-c4c5c(c(O)c6c(OC)cc(OC)cc46)CO[C@@H](C)[C@H]5O)c2c1)[C@H](O)[C@H](C)OC3
(9) CC1CCCCN1C(=O)c1cnn2c(C(F)(F)F)cc(-c3ccco3)nc12 (stereo not given)
(10) CCn1c2ccccc2c2cc(NC(=O)c3ccc(=O)oc3)ccc21
Compound	1	2	3	4	5	6	7	8	9	10
EPAC1 agonist	-21%	-16%	-17%	-2%	-12%	7%	4%	-33%	12%	19%
Rango dissoc inh	?	14%	13%	.	.	15µM*	-12%	?	9.2µM*	?
EPAC2 antagonist	18µM*	?	35µM*	2%	7%	0%	2%	10%	-7%	25%
Rango complex inh	?	3%	0%	.	.	-7%	1%	?	?	?
EPAC1 antagonist	79µM*	50µM*	?	9%	-19%	0%	-5%	35µM*	-20%	12%
EPAC2 agonist	-10%	-13%	-20%	5%	5%	3%	-4%	-21%	18%	100µM*

(11) COc1ccc(NC2=Nc3cccc4cccc2c34)cc1OC
(12) COc1cccc(NC2=Nc3cccc4cccc2c34)c1
(13) Cc1cccc(Cc2nnc(CCC(=O)N(C)CCc3ccccc3)o2)c1
(14) CN(C)c1ccc(CN2CCC(C(=O)NC(c3ccc(Cl)cc3)c3cnccn3)CC2)cc1 (stereo not given)
(15) COc1ccc(NC(=O)NS(=O)(=O)c2ccc(C)cc2)cn1
(16) COc1cc(NC(=O)NS(=O)(=O)c2ccc(C)cc2)cc(OC)c1
(17) ON=C(c1ccccc1)c1ccc2c3c(cccc13)CC2
(18) O=C1CC(=O)N(Cc2ccco2)C(=S)N1
(19) O=C1CC(=O)N(Cc2ccco2)C(=O)N1
(20) O=C(C(=O)N1CCC(c2ccccc2)CC1)c1ccc(F)c(F)c1
Compound	11	12	13	14	15	16	17	18	19	20
EPAC1 agonist	2%	7%	3%	-23%	100µM*	1%	4%	4%	20%	-3%
Rango dissoc inh	-11%	2%	10%	.	?	15%	.	?	?	.
EPAC2 antagonist	10%	3%	-2%	10%	27%	16%[57.1 µM]	14µM*	14%	?	-23%
Rango complex inh	-1%	58µM*	21µM*	.	?	1%	.	?	?	.
EPAC1 antagonist	-1%	-15%	9%	1%	109%	18%	6%	45µM*	?	-4%
EPAC2 agonist	-2%	15%	9%	9%	11%	-10%	19%	5%	2%	5%

(21) N#Cc1c(SCC(=O)Nc2ccc(C(F)(F)F)cc2)sc2c(O)cc(=O)[nH]c12
(22) N#Cc1c(SCC(=O)Nc2nncs2)sc2c(O)cc(=O)[nH]c12
(23) CCOC(=O)C1=CCN(S(=O)(=O)c2ccc(C)cc2)C1c1cccc(Br)c1 (stereo not given)
(24) Cc1cccc(C)c1NC(=O)C(c1ccc(C#N)cc1)n1c(=O)c(-c2cc3ccccc3[nH]2)nc2ccccc21 (stereo not given)
(25) CC(C)C/C(O)=C/c1nc2cc(Cl)ccc2oc1=O
(26) CN(C)CCCN(C(=O)c1cc2cc([N+](=O)[O-])ccc2s1)c1nc2cc3c(cc2s1)OCCO3
Compound	21	22	23	24	25	26
EPAC1 agonist	0%	-9%	10%	9%	1%	19%
Rango dissoc inh	-4%	-1%	.	.	15µM*	-12%
EPAC2 antagonist	1%	1%	-5%	3%	10%	50µM*
Rango complex inh	2%	?	.	.	?	0%
EPAC1 antagonist	1%	89µM*	-20%	-4%	2%	?
EPAC2 agonist	13%	7%	8%	11%	-2%	27%

Three consecutive entries already listed:
(21) N#Cc1c(SCC(=O)Nc2ccc(C(F)(F)F)cc2)sc2c(O)cc(=O)[nH]c12
(22) N#Cc1c(SCC(=O)Nc2nncs2)sc2c(O)cc(=O)[nH]c12
(23) CCOC(=O)C1=CCN(S(=O)(=O)c2ccc(C)cc2)C1c1cccc(Br)c1 (stereo not given)
Compound	21	22	23
EPAC1 agonist	0%	-9%	10%
Rango dissoc inh	-4%	-1%	.
EPAC2 antagonist	1%	1%	-5%
Rango complex inh	2%	?	.
EPAC1 antagonist	1%	89µM*	-20%
EPAC2 agonist	13%	7%	8%
